Screening results deposited in PubChem BioAssay by Broad Institute.
PglD DTNB = PglD (C. jejuni) enzyme inhibition | purified PglD enzyme, DTNB colorimetric CoA detection | inhibition, % at 12.5 µM | 360,000 tested, 0.098% active; in the data active = inhibition above about 16%, passing the limit was not always enough
ERp5 inh = ERp5 (human) disulfide isomerase inhibition; 350,000 tested, 0.05% active; ERp5 insulin aggregation, absorbance 650 nm, 90 min; Q15084; inhibition, % at 9.99 µM;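 active = mean replicate inhibition above about 25%, with every replicate also reaching it, limit read from the data, passing the limit was not always enough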
ARNT-TACC3 inh = ARNT/TACC3 interaction disruption | Q9Y6A5 | AlphaScreen His-ARNT PAS-B/GST-TACC3 binding, luminescence; TACC3 fragment carries E629A point mutation | inhibition, % at 9.99 µM | 390,000 tested, 0.66% active | AID 623870;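 active = mean inhibition of replicates at least 50% and at least half of replicates each reaching 50%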;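 note: 0% = complete ARNT plus TACC3 wells and 100% = ARNT alone without TACC3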
Yeast UUG start = modulators of start codon recognition fidelity in yeast. S. cerevisiae UUG-firefly luciferase reporter, luminescence/redox ratio. activity score, % at 18.7 µM. 0.13% of 350,000 active. AID 602363;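 active = replicate mean at a twofold rise or more, about +100% in these data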;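 also: firefly luciferase made from a UUG start codon reports start codon fidelity; reporter light over untreated wells divided by growth signal over untreated wells; some hits fall short of that in this replicate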
PDI turbidity = blocks human protein disulfide isomerase activity; PDI insulin aggregation turbidity, A650, 90 min; inhibition, % at 10 µM; 350,000 tested, 0.052% active;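 active = mean inhibition across replicates of 30% or more, whatever share of single replicates reach that level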
FGF22 binding = FGF22 (human) thermal shift binding | 340,000 tested, 1.5% active | AID 651658 | activity (Tm shift, normalised), % at 9.99 µM | Q9HCT0 | recombinant FGF22 thermal shift, SYPRO orange fluorescence; percent of sucrose octasulfate shift, DMSO zero;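 active = mean Tm shift, scaled 0 neutral to 100 positive control, at about 1.3% or above, every replicate too, limit read from the data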
PglD inh SP = blocks Campylobacter jejuni PglD acetyltransferase activity; shares compounds with PglD DTNB; Purified C. jejuni PglD, DTNB absorbance 412 nm; inhibition, % at 20 µM; 320 tested, under 10 active; AID 743156;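 active = mean inhibition across replicates of at least 20% with every single replicate also at 20% or more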;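 note: initial rate of CoA release by acetyl transfer from AcCoA to the UDP-4-amino sugar; 0% = median of neutral control wells and 100% = median of positive control wells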
ARNT Alpha ctr = interferes with AlphaScreen signal, flagging false ARNT-TACC3 hits; 1,200 tested, 50% active; His-ARNT PASB-GST AlphaScreen artifact counter-screen, luminescence; AID 651705; shares compounds with ARNT-TACC3 inh; AC50, µM (titrated, usually from 68 µM), inactives show at the top dose activity change, negative = signal decrease;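 active = every separate test run was called active for a drop in luminescence, with AC50 within twice the top valid dose, actives reach about 71 µM in these data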
Active calls of the source: *; x = not tested or not shown; [ ] = dose if it differs, or a comment. Hits are enriched below; roughly 1.9% of the tested compounds scored in any of these assays.

SMILES	PglD DTNB	ERp5 inh	ARNT-TACC3 inh	Yeast UUG start	PDI turbidity	FGF22 binding	PglD inh SP	others
C[C@H]1CN([C@@H](C)CO)S(=O)(=O)c2ccc(C#CC3CC3)cc2O[C@H]1CN(C)C(=O)C1CCC1	-1.7	6.4	3.4	-4.0	x	0.0	x
O=C(C1CCC1)N1CC2(C1)[C@H](c1ccccc1)[C@H](CO)N2C(=O)c1cccnc1	x	3.3	x	x	x	x	x
Cc1cc(=O)[nH]c(SCC(=O)Nc2ccc(Br)cc2)c1C#N	21.1*	x	-0.2	-6.5	6.2	x	2.7
CN1/C(=C\C(=O)Nc2cccc(Cl)c2)C(C)(C)c2ccccc21	20.3*	1.8	x	-19.0	-19.6	0.1	12.8
COc1ccc(-n2ccnc2)cc1	36.8*	5.0	11.0	-8.6	10.8	0.0	9.2
CCN(CC)C(=O)c1ccccc1NC(=O)c1ccccc1	28.5*	2.8	-1.1	2.4	6.3	-0.1	0.2
CCN(CC)C(=O)c1ccccc1NC(=O)c1cccc(S(=O)(=O)N(CC)CC)c1	x	2.7	-19.7	x	-14.1	-0.3	x
CN1CCN(C(=O)C[C@H]2CC[C@@H]3[C@H](COC[C@H](O)CN3Cc3cccc(-c4ccncc4)c3)O2)CC1	0.4	5.3	-1.9	-8.4	x	0.0	x
CCN1C(=O)CC(N2CCN(c3ccc(C(=O)c4ccccc4)cc3)CC2)C1=O (centres undefined)	-7.3	x	2.0	-3.1	-5.1	x	x
CCN1C(=O)CC(N2CCN(c3ccc(Cl)cc3)CC2)C1=O (centres undefined)	35.0*	x	x	-8.5	9.7	x	1.9

Next section; the last four above are carried over.
SMILES	PglD DTNB	ERp5 inh	ARNT-TACC3 inh	Yeast UUG start	PDI turbidity	FGF22 binding	PglD inh SP	others
CCN(CC)C(=O)c1ccccc1NC(=O)c1cccc(S(=O)(=O)N(CC)CC)c1	x	2.7	-19.7	x	-14.1	-0.3	x
CN1CCN(C(=O)C[C@H]2CC[C@@H]3[C@H](COC[C@H](O)CN3Cc3cccc(-c4ccncc4)c3)O2)CC1	0.4	5.3	-1.9	-8.4	x	0.0	x
CCN1C(=O)CC(N2CCN(c3ccc(C(=O)c4ccccc4)cc3)CC2)C1=O (centres undefined)	-7.3	x	2.0	-3.1	-5.1	x	x
CCN1C(=O)CC(N2CCN(c3ccc(Cl)cc3)CC2)C1=O (centres undefined)	35.0*	x	x	-8.5	9.7	x	1.9
CN(C)C(=O)CSc1nnc(-c2cc(-c3cccs3)nc3ccccc23)o1	53.7*	x	-8.2	-12.7	20.3	x	-8.2
CCN(CC)C(=O)CSc1nnc(-c2cc(-c3ccc(Cl)cc3)nc3ccccc23)o1	x	4.2	-14.8	x	-3.0	0.0	x
C[C@@H]1CN([C@H](C)CO)C(=O)c2cc(NS(=O)(=O)c3ccccc3)ccc2O[C@@H](C)CCCCO[C@@H]1CN(C)Cc1ccc2c(c1)OCO2	1.3	3.1	3.3	12.1	x	x	x
O=C(CCCC(=O)NCc1ccccc1)NCc1ccccc1	1.4	x	0.5	-4.8	-7.3	x	x
O=C(CCCCCCC(=O)NCc1ccccc1)NCc1ccccc1	83.6*	-1.2	-6.8	-27.8	-6.6	-0.1	-12.7
CC(=O)c1cccc(NC(=O)c2cccc3c(-c4cccnc4)coc23)c1	1.7	2.2	x	-9.0	2.6	-0.1	x
CS(=O)(=O)Nc1cccc(NC(=O)c2cccc3c(-c4cccnc4)coc23)c1	35.0*	x	x	-27.4	-10.2	x	0.7
COc1ccc(CNCc2cccc(Cl)c2)cc1	30.5*	4.4	-3.5	-4.1	-0.2	0.0	3.0
O=C(O)c1ccc(CNCc2cccc(Cl)c2)cc1	x	0.1	-0.1	x	-0.6	0.0	x
CCC(=O)N1CCC2(CC1)CN(C(=O)CN1CCOCC1)[C@H](CO)c1c2c2ccc(OC)cc2n1C	x	4.5	x	x	x	-0.2	x
COC(=O)NCc1cccc(CNC(=O)OC)c1	29.8*	x	29.6	-3.1	7.4	x	2.4
Cc1ccc(S(=O)(=O)N[C@@H]2CC[C@H](CCNC(=O)C3CC3)O[C@H]2CO)cc1	0.9	-4.9	-2.1	-0.6	x	0.5	x
CC(=O)c1ccc(S(=O)(=O)N2Cc3ccccc3CC2C(=O)O)cc1 (centres undefined)	24.6*	8.7	19.3	-15.9	-4.1	0.0	0.4
O=C(O)[C@H]1Cc2ccccc2CN1S(=O)(=O)c1ccc(F)cc1	2.7	-6.1	-0.4	-17.7	-2.9	0.2	x
N#C[C@H]1[C@@H](c2ccc(C#CC3CCCCC3)cc2)[C@H](CO)N1C(=O)Cc1ccccn1	-2.3	-0.1	-1.0	-1.0	x	-0.2	x
CN(C(=O)c1ccc(NC(=O)Cc2cccc(NC(=O)C3CCN(C(=O)C4CC4)CC3)c2)cc1)C1CC1	25.4*	2.3	-6.6	15.3	4.5	-0.1	-0.9
CN(C)CCCNC(=O)C[C@@H]1CC[C@@H](NC(=O)c2ccccc2F)[C@@H](CO)O1	-4.4	-4.0	-5.6	-20.2	x	-0.1	x
C=CCNc1nc(Cl)nc(Nc2ccc(OCC)cc2)n1	29.3*	1.6	1.8	-0.8	22.8	-0.3	2.7
O=C(NCCN1CCCCC1)Nc1ccc(F)cc1F	24.2*	1.4	-19.7	1.5	0.0	0.0	6.6
O=C(COc1cccc(Cl)c1)N/N=C\c1cc2ccccc2nc1Cl	5.3	x	-2.3	1.6	5.7	x	x

Two records drawn at random from those above, as already listed:
SMILES	PglD DTNB	ERp5 inh	ARNT-TACC3 inh	Yeast UUG start	PDI turbidity	FGF22 binding	PglD inh SP	others
CN(C)CCCNC(=O)C[C@@H]1CC[C@@H](NC(=O)c2ccccc2F)[C@@H](CO)O1	-4.4	-4.0	-5.6	-20.2	x	-0.1	x
O=C(O)[C@H]1Cc2ccccc2CN1S(=O)(=O)c1ccc(F)cc1	2.7	-6.1	-0.4	-17.7	-2.9	0.2	x

New compounds follow:
SMILES	PglD DTNB	ERp5 inh	ARNT-TACC3 inh	Yeast UUG start	PDI turbidity	FGF22 binding	PglD inh SP	others
Cc1ccccc1OCC(=O)N/N=C/c1cc2ccccc2nc1Cl	25.6*	x	-0.5	-21.7	10.1	x	3.1
COc1cccc2cc(-c3nnc(-c4ccccc4)o3)c(=O)oc12	20.5*	-1.4	x	-53.9	10.3	-0.4	3.7
CCn1cc(C(=O)NCCCN2CCCC(C)C2)c(=O)c2cc(S(=O)(=O)N3CCOCC3)ccc21 (centres undefined)	24.2*	1.0	-0.6	-12.9	0.4	-0.2	8.4
CCCCOc1ccc(CC(=O)NCC(=O)O)cc1	23.3*	x	-40.9	2.4	0.3	x	-2.7
CCN(C(=O)COc1ccccc1C(=O)NCc1ccccc1)C1CCS(=O)(=O)C1 (centres undefined)	4.9	-8.9	-4.1	-14.0	-3.0	-0.2	x
CCN(C(=O)COc1cccc2cccnc12)C1CCS(=O)(=O)C1 (centres undefined)	x	-1.2	53.2*	x	2.6	-0.1	x	ARNT Alpha ctr=-10.9%
COc1ccc(NC(=O)N(C)C[C@@H]2OCCCC[C@@H](C)Oc3ccc(NC(=O)C4CCCCC4)cc3C(=O)N([C@H](C)CO)C[C@@H]2C)cc1	-1.6	-2.7	0.3	-5.5	x	0.0	x
COc1ccccc1C(CCNCc1ccc(N(C)C)cc1)c1ccc(OC(C)C)cc1 (centres undefined)	2.1	6.3	active	-0.1	0.5	-0.1	x	ARNT Alpha ctr=7.71µM*
O=C(Nc1ccc(Cl)cc1)N[C@@H]1CC[C@@H](CCn2cc(C3(O)CCCC3)nn2)O[C@H]1CO	1.9	2.9	6.6	-7.0	x	0.8	x
CN(C)C(=O)c1ccc(-c2ccc3c(c2)[C@H]2[C@H](CCN2C(=O)C2CCOCC2)[C@H](CO)N3C)cc1	-0.8	8.6	2.8	3.3	x	-0.1	x
COC(=O)C(CC#Cc1ccc2c(c1)[C@]1(C(=O)N2)[C@H](c2ccc(O)cc2)N2[C@H](c3ccccc3)[C@H](c3ccccc3)OC(=O)[C@H]2[C@@H]1C(=O)N1CCCCCCC1)C(=O)OC	4.3	1.8	67.9*	24.0	x	x	x	ARNT Alpha ctr=-32.7%[38 µM]
